## AlphaSeq binding of Ab-14 light chain variants to a spike HR2 peptide

Target peptide (SARS-CoV-2 spike, HR2 region): PDVDLGDISGINAS

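In library AAYL50, one, two or three CDR residues were substituted; doubles and triples were drawn at random. The assay is AlphaSeq: two haploid yeast populations carry antibody and antigen on their surface. Pairs that bind mate more often; barcode pairs of the diploids are counted by sequencing. A regression on co-assayed BCL2-family reference pairs converts the normalised counts of each replicate to an apparent Kd. There are three technical replicates.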

Parent scFv Ab-14: VH joined to VL by three GGGGS repeats. Changes lie in the light chain CDRs alone.
VH: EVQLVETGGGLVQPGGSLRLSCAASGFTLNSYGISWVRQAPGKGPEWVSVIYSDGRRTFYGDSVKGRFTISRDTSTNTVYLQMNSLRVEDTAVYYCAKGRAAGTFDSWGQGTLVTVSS
VL: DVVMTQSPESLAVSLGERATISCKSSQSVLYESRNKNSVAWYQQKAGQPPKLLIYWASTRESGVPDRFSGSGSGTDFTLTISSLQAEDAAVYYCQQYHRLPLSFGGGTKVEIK

Substitutions are numbered in sequence along the VL above, starting at 1 (not Kabat). Affinities are written as log10 Kd with Kd in nM; a lower number is a better binder. A mean of the replicates is given; it leaves out those without a signal. Where no diploid with the target was found in that replicate, the entry reads "nd": below detection, most likely a poor binder, though not proof of it. Order: sorted from the lowest average up, undetected variants last. Three control strains display no target. For library AAYL50, 18% of the pairings with them gave a signal, with a median of 4.19 and one signal in twenty below 2.99, so weak values seen in few replicates may be background. For reference, the parent read 0.65 as the reference entry and 1.68 as a member of this library.

changes	log10 Kd, replicates	mean log10 Kd (nM)
V29L/K36A	0.14 0.42 0.28	0.28
S25M/Y31K/H98T	0.23 0.54 0.34	0.37
K24Q/S25M/S58Q	0.28 0.64 0.44	0.45
R34G/W56D/S103I	0.45 0.60 0.50	0.51
S38M/W56G/S103N	0.48 0.69 0.74	0.64
K24I/E32A/W56D	1.03 1.19 1.13	1.11
Q27V/S58E/T59Y	1.21 1.41 1.31	1.31
S28P/K36C/Y97P	1.40 1.65 1.52	1.52
K24N/S25N/Y31M	1.83 1.86 1.83	1.84
S25N/K36Q/S62Q	1.96 2.11 2.06	2.04
Q96P/L102A	1.90 2.11 2.41	2.14
W56D/Q95Y	2.57 2.44 2.76	2.59
S26G/Y31V/R99N	1.85 3.94 2.02	2.60
W56M/S58Y/E61Q	2.50 2.54 2.91	2.65
V29S/S33T/S103G	2.39 3.29 2.68	2.79
S26F/R34L/S103V	2.50 3.18 2.71	2.80
E32H/V39I/R60A	3.57 2.74 3.20	3.17
V29P/W56V/R99D	3.72 nd nd	3.72
S25P/R99S/L100P	nd nd 3.80	3.80
S58R/R60P/S62G	3.92 nd nd	3.92
L30I/K36F/R60Q	4.24 3.47 4.94	4.22
S25N/H98I	nd 4.75 nd	4.75
S33M/S38V/R99E	nd 5.37 nd	5.37
S58C/Y97P/L100S	nd nd nd	nd
S25K/Q27T/T59E	nd nd nd	nd
Q27R/E32W/R60S	nd nd nd	nd
K24P/S62T/Q96N	nd nd nd	nd
A40I/R60P/L100V	nd nd nd	nd
S33L/N35M/R99F	nd nd nd	nd
Y97P/S103I	nd nd nd	nd
E32K/N35E/W56H	nd nd nd	nd
A40Q/W56I/S58Q	nd nd nd	nd
L30I/T59E/L102P	nd nd nd	nd
S62D/Q95V/S103C	nd nd nd	nd

Excerpt, the first 5 entries:

changes	log10 Kd, replicates	mean log10 Kd (nM)
V29L/K36A	0.14 0.42 0.28	0.28
S25M/Y31K/H98T	0.23 0.54 0.34	0.37
K24Q/S25M/S58Q	0.28 0.64 0.44	0.45
R34G/W56D/S103I	0.45 0.60 0.50	0.51
S38M/W56G/S103N	0.48 0.69 0.74	0.64

The measurements come from Engelhart et al. 2022 (doi:10.1038/s41597-022-01779-4) through the FLAb antibody collection.